# Screening data deposited in PubChem by Broad Institute.
# Only some compounds are listed: those with a hit (about 1.9% of all), similar ones and a draw of the others.
# PDI inh: blocks human protein disulfide isomerase activity; PDI insulin aggregation turbidity, A650, 90 min; inhibition, % at 10 µM; 350,000 compounds, 0.052% hits; AID 588391;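 active means mean inhibition across replicates of 30% or more, whatever share of single replicates reach that level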
# ERp5 inh: blocks human ERp5 reductase activity on insulin | Q15084 | ERp5 insulin aggregation, absorbance 650 nm, 90 min | inhibition, % at 9.99 µM | 350,000 compounds, 0.05% hits;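 active means mean replicate inhibition above about 25%, with every replicate also reaching it, limit read from the data, passing the limit was not always enough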
# PglD inh: PglD (C. jejuni) enzyme inhibition | purified PglD enzyme, DTNB colorimetric CoA detection | inhibition, % at 12.5 µM | 360,000 compounds, 0.098% hits; in the data active means inhibition above about 16%, passing the limit was not always enough
# FGF22 binding: FGF22 (human) thermal shift binding; 340,000 compounds, 1.5% hits; recombinant FGF22 thermal shift, SYPRO orange fluorescence; percent of sucrose octasulfate shift, DMSO zero; activity (Tm shift, normalised), % at 9.99 µM;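 active means mean Tm shift, scaled 0 neutral to 100 positive control, at about 1.3% or above, every replicate too, limit read from the data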
# Yeast UUG start: yeast start codon fidelity modulation | S. cerevisiae UUG-firefly luciferase reporter, luminescence/redox ratio | activity score, % at 18.7 µM | hit rate 0.13% among 350,000 | AID 602363;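 active means replicate mean at a twofold rise or more, about +100% in these data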;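 further: firefly luciferase made from a UUG start codon reports start codon fidelity; reporter light over untreated wells divided by growth signal over untreated wells; some hits fall short of that in this replicate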
# ARNT-TACC3 inh: disruptors of human ARNT/TACC3 interaction | Q9Y6A5 | AlphaScreen His-ARNT PAS-B/GST-TACC3 binding, luminescence; TACC3 fragment carries E629A point mutation | inhibition, % at 9.99 µM | 390,000 compounds, 0.66% hits;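 active means mean inhibition of replicates at least 50% and at least half of replicates each reaching 50%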
# Numbers stand for hits; - = inactive; . = no result.
SMILES,PDI inh,ERp5 inh,PglD inh,FGF22 binding,Yeast UUG start,ARNT-TACC3 inh
CCOc1c(Cl)cc(CNC(C)(C)CC(C)(C)C)cc1OC,35.4,.,.,.,.,-
CCOc1c(Cl)cc(CNCc2ccccn2)cc1OC,-,-,-,-,-,48.7
O=C(Nc1ccccc1F)N[C@H]1CC[C@H](CCNC(=O)C2CCC2)O[C@H]1CO,.,-,-,-,-,-
C[C@@H]1CN([C@@H](C)CO)C(=O)Cc2cc(NC(=O)Cc3cn(C)c4ccccc34)ccc2O[C@H]1CN(C)S(=O)(=O)c1cn(C)cn1,.,-,-,-,-,.
COc1ccc(-c2ccc3c(c2)O[C@@H](CN(C)CC2CC2)[C@@H](C)CN([C@@H](C)CO)S3(=O)=O)cc1,.,.,.,.,-,.
Cn1nnnc1SCC(=O)N1N=C(c2ccc(Cl)cc2)CC1c1ccco1 (stereo not given),-,-,-,-,-,-
COc1ccc(C2=NN(C(=O)CSc3nnc(C)n3C)C(c3ccco3)C2)cc1 (stereo not given),-,-,.,42.9,.,-
O=c1[nH]c(=O)c2cc([N+](=O)[O-])cc([N+](=O)[O-])c2[nH]1,-,-,.,43.1,.,-
Cc1ccc2sc(C)[n+](CCCS(=O)(=O)[O-])c2c1,-,-,.,-,.,-
Cc1ccc2c(c1)sc(C)[n+]2CCCS(=O)(=O)[O-],-,-,-,43.1,-,-
O=C(Nc1ccccc1)N1CCCCN2[C@H](CO)[C@H](c3ccc(C#Cc4cccnc4)cc3)[C@@H]2C1,.,-,-,-,-,-
CCNC(=O)CC1C(=O)N(C)C(=S)N1NC(=O)c1ccc(Cl)cc1 (stereo not given),-,.,-,.,-,-
Nc1ccc(C(=O)NN2C(=O)[C@H](Cl)C2c2ccc(Cl)cc2)cc1 (stereo not given in full),56.1,-,.,1.6,.,-
CCOC(=O)c1cnc(-n2nc(C)cc2C)nc1Nc1ccc(N(C)C)cc1,-,.,-,.,-,-
CCOC(=O)c1cnc(-n2nc(C)cc2C)nc1NC,-,.,-,.,-,48.1
CCn1cc(-c2ccnc3cc(C(=O)O)nn23)c(C)n1,-,-,-,43.2,-,-
O=C(Nc1ccccc1)OC1CC2CC1C1CCCC21 (stereo not given),-,-,-,42.9,-,-
COc1ccccc1CN(C)c1ccc(S(=O)(=O)N2CCN(C)CC2)cn1,-,31.5,-,-,-,-
CN(Cc1ccccc1F)c1ccc(S(=O)(=O)N2CCCC2)cn1,-,-,.,-,.,-
NC(=O)CC(NC(=O)Cc1ccc(Br)cc1)c1ccc(NCC2CC2)c([N+](=O)[O-])c1 (stereo not given),-,-,-,-,-,-
NC(=O)CC(NC(=O)Cc1ccc(Br)cc1)c1ccc(NCc2ccc(F)cc2)c([N+](=O)[O-])c1 (stereo not given),-,-,-,43.6,-,-
COc1cc(NC(=S)N2CCN(C(=O)C3CCCO3)CC2)c(OC)cc1Cl (stereo not given),-,-,.,43.9,.,-
COc1ccc(Cl)cc1NC(=S)N1CCN(C(=O)C2CCCO2)CC1 (stereo not given),-,-,.,-,.,-
COc1ccc(-c2ccc3n(c2=O)C[C@@H]2[C@@H](CO)[C@H](C(=O)N(C)C)[C@H]3N2Cc2cccnc2)cc1,.,-,-,-,.,-
COc1ccc(CC(=O)NC(C)c2nnc(SCC(=O)Nc3cc(C)ccc3OC)n2C)cc1 (stereo not given),-,-,.,1.6,.,-
SMILES,PDI inh,ERp5 inh,PglD inh,FGF22 binding,Yeast UUG start,ARNT-TACC3 inh
COc1ccc(OC)c(NC(=O)CSc2nnnn2C)c1,-,-,.,43.2,.,-
COc1ccc(CC(=O)NC(C)c2nnc(SCC(=O)Nc3ccccc3)n2C)cc1 (stereo not given),-,-,-,-,-,-
COCCNC(=O)[C@@H]1[C@@H](CO)[C@@H]2Cn3c(ccc(-c4ccccc4F)c3=O)[C@@H]2N1C(=O)C1CCC1,.,-,.,.,.,.
O=C(C[C@H]1CC[C@@H](NS(=O)(=O)c2ccc(F)cc2)[C@H](CO)O1)NC1CCCCC1,.,-,-,-,-,-
COc1ccc(NC(=O)Nc2ccc3c(c2)C(=O)N([C@@H](C)CO)C[C@@H](C)[C@H](CN(C)Cc2ccc(C(=O)O)cc2)OCCCC[C@H](C)O3)cc1,.,-,-,-,-,-
CCOC(=O)[C@]12CCCC=C1N(Cc1ccc(Cl)cc1Cl)C(=O)[C@H](CC(=O)NCc1cccc(C(F)(F)F)c1)C2,.,-,.,-,.,.
COC(=O)[C@]12CCCCC=C1N(Cc1ccccc1)C(=O)[C@H](CC(=O)NCc1cccc(C(F)(F)F)c1)C2,.,-,.,-,.,.
CCCCNC(=O)C[C@@H]1C[C@@]2(C(=O)OC)CC(C)(C)CC=C2N(CCc2ccc(OC)c(OC)c2)C1=O,.,-,.,40.3,.,.
CCOC(=O)[C@]12CCC=C1N(Cc1ccc(Cl)cc1Cl)C(=O)[C@H](CC(=O)NCc1cccc(C(F)(F)F)c1)C2,.,-,.,1.4,.,.
COC(=O)[C@@]12C[C@@H](CC(=O)NCc3cccc(C(F)(F)F)c3)C(=O)N(Cc3cccc4ccccc34)C1=CCC(C)(C)C2,.,-,.,23.4,.,.
COC(=O)[C@]12CCCCC=C1N(Cc1ccc(Cl)cc1Cl)C(=O)[C@H](CC(=O)NCc1cccc(C(F)(F)F)c1)C2,.,-,.,1.5,.,.
COc1cccc(-c2ccc([C@@H]3[C@H](CO)N(C(=O)C4CC4)C34CN(C(C)=O)C4)cc2)c1,.,-,.,-,.,.
C[C@@H]1CCCCO[C@@H](CN(C)C(=O)Nc2ccccc2)[C@H](C)CN([C@H](C)CO)C(=O)c2cc(NC(=O)c3ccncc3)ccc2O1,.,-,-,.,-,-
CC1CN(CCOCCSc2ccccc2)CC(C)O1 (stereo not given),-,-,.,43.4,.,-
CC1CN(CCOCCSc2ccc(Cl)cc2)CC(C)O1 (stereo not given),-,-,-,-,-,-
CCCNC(=O)Nc1ccc2c(c1)C(=O)N(C)C[C@H](OC)[C@H](C)CN(CCC)[C@@H](C)CO2,.,-,-,.,-,-
Cc1ccnc(NS(=O)(=O)c2ccc(NC(=O)/C=C/c3ccccc3)cc2)n1,-,-,-,-,-,-
Cc1cc(C)nc(/N=C(\N)Nc2ccc(S(=O)(=O)O)cc2)n1,-,-,.,-,.,-
Cc1ccnc(NS(=O)(=O)c2ccc(NC(=O)/C=C/c3cccs3)cc2)n1,-,-,.,43.6,.,.
Cc1cc(C)nc(/N=C(\N)Nc2ccc(S(=O)(=O)Nc3nccc(C)n3)cc2)n1,-,-,-,43.1,-,-
Cc1ccc(CNC(=O)CCNS(=O)(=O)c2ccc3c(c2)c(=O)n(C)c(=O)n3C)cc1,-,.,-,.,-,-
Cn1c(=O)c2cc(S(=O)(=O)NCCC(=O)NCc3ccccc3Cl)ccc2n(C)c1=O,-,.,-,.,-,49.8
C[C@@H]1CN([C@H](C)CO)C(=O)Cc2cc(NS(=O)(=O)c3ccc(Cl)cc3)ccc2O[C@H]1CN(C)S(C)(=O)=O,.,-,-,-,-,-
